Assay results reported in PubChem BioAssay AID2717 (Broad Institute, 2010).
Only a part is listed here, and it is no random draw. The source made the active and inactive calls. No stated cut-off is given here; in the data, active means inhibition above about 75%; inconclusive means no clear call, values can overlap the other calls; inactive means below that; tested in HMLE shEcad cells.

Assay: cancer stem cell viability inhibitors, primary screen, luminescence (AID 2717)
Details: cancer stem cell-like cells viability, at 7.5 µM, active compounds read high

| SMILES | inhibition |
| --- | --- |
| O=[N+]([O-])c1ccc(O)c(/C=N/Nc2ccc([N+](=O)[O-])cc2[N+](=O)[O-])c1 | active: 78.4% |
